{"source": "paper PMC12282101", "about": "“Heat shock protein 90 chaperone activity is required for hepatitis A virus replication” (Journal of Virology, 2025)", "test_system": "Huh-7.5.1 cells", "experiment": "Cell viability in the chemical screen (Cell TiterGlo)", "conditions": "10 µM compound, 72 h", "data": [{"substance": "Maraviroc", "values": [{"measurement": "Viability Percent DMSO", "value": 163, "unit": "Percent DMSO"}]}]}
